In patent publication US20080248511A1, “METHODS TO QUENCH LIGHT FROM OPTICAL REACTIONS” (priority 2007, published 2008):

Target: T1, Renilla luciferase (Renilla reniformis, UniProt P27652)
T1 sequence (P27652 1-311): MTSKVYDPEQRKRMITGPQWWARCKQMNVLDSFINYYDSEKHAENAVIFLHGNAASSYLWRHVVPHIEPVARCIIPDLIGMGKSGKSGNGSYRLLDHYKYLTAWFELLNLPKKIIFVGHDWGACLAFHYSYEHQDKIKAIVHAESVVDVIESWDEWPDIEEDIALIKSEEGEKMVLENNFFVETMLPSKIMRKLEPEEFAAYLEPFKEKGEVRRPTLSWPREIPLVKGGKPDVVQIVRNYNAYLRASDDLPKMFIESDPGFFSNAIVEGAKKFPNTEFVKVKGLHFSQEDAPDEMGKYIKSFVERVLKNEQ
Experiment: Quench of Renilla luciferase luminescence by competitive inhibitors in detergent-containing quenching reagent (Example 1)
Assay type: biochemical
Conditions: in the presence of lysing detergent and quenching reagent
Description: Renilla luciferase (1×10^−9 M in Renilla Luciferase Lysis Buffer (Promega))+0.1% Prionex (PentaPharma) was added to Renilla Luciferase Assay Buffer (Promega) containing 3 μM coelenterazine-h. The initial Renilla luciferase-mediated luminescence was measured for 10 seconds using a Turner 20/20 n (Turner BioSystems). A quenching reagent containing 50 mM HEPES pH 7.4, 16 mM MgSO4, 1 mM CDTA, 0.5% Tergitol NP-9, 0.015% dodecyltrimethylammonium bromide, 10 mM thiourea, 0.05% Mazu-DF-204 (PGP), and 1.5 mM ATP (Pharmacia) was added to the reactions to reduce the Renilla luciferase-mediated luciferase luminescence. To the quenching reagent, the competitive inhibitor methylether coelenterazine-h, methylether coelenterazine-hh or coelenteramide was titrated to either 10 μM or 100 μM in the quenching reagent. After the addition of the inhibitors, a second Renilla luciferase-mediated luminescence reading was taken. Unless otherwise specified, materials were obtained from Sigma-Aldrich.
The Ki values for each inhibitor in the presence of a lysing detergent and a quenching reagent is much greater (>100 μM versus 0.001 μM; about a 100,000 fold difference). The quenching agents described herein are effective in the presence of detergents used for cell lysis as well as other quenching agents.

| Substance | Ki [µM] |
| --- | --- |
| methylether coelenterazine-hh | ~100 |
| methylether coelenterazine-h | > 100 |
